21 compounds from patent US8343971B2, “Pharmacologically-active vanilloid carbamates” (dated 2013) can be followed below.

Chains of the proteins cited; added tags and fusions are not shown.
UniProt O00519, whole entry, looked up: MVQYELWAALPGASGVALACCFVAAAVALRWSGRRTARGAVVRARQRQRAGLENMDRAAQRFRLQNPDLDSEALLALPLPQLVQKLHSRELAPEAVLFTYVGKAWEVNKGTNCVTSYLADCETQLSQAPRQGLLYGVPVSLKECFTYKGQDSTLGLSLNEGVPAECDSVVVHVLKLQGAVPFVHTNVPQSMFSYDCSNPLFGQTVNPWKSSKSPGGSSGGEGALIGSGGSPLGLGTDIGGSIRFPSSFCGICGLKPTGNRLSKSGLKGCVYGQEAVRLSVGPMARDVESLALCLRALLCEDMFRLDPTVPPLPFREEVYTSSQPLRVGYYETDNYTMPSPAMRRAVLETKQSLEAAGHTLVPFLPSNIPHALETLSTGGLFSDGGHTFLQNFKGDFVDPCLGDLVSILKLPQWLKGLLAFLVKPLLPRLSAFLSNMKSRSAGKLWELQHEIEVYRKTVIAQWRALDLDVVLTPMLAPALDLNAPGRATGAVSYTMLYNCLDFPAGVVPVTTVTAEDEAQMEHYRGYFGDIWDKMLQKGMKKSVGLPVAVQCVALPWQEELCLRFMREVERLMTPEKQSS

pIC50: −log10 of the molar value. Where two headings read alike, the source gives them in different places.

The test system of assay [1] is TPA-induced mouse ear edema. The experiment in a line: Mouse ear inflammation (edema) assay, TPA-induced. The following applies: ear punch weight after 6 hours; for Rel. TPA Inflammatory Suppression: test compound 1-2 micromoles applied to ear 10 minutes prior to TPA, relative percent inhibition of edema; for Rel. TPA Inflammatory Suppression (percent): reference drugs applied to ear 10 minutes prior to TPA.

For another assay, the target named is human recombinant FAAH (Homo sapiens, UniProt O00519). The experiment in a line: FAAH Inhibitor Screening Assay Kit (Cayman), fluorescence-based, AMC-arachidonoyl amide hydrolysis. Particulars: for IC50: read-out: FAAH (μM, IC50), 20 micromolar AMC-arachidonoyl amide, 30 min at 37° C., pH 9.0.
The subject of assay [2] is CEES-induced mouse ear edema. Kind of assay: Mouse ear inflammation (edema) assay, CEES-induced. Particulars: test compound 1-2 micromoles applied to ear 10 minutes prior to CEES (2.5 mg/ml); ear punch weight after 6 hours.

By IC50 is commonly meant the concentration that inhibits the measured activity by half. In general, pIC50 refers to the negative decadic logarithm of the IC50, by convention in mol/L.

Take `COc1cc(COC(=O)NC2Cc3ccccc3C2)ccc1OC(C)=O`: the “Rel. TPA Inflammatory Suppression” value in assay [1] is recorded as “**** (>70% were scored (* * * *))”. Further, at human recombinant FAAH, the IC50 was 100 µM.

For the compound `CCCCN(CCCC)C(=O)OCc1ccc(OC(C)=O)c(OC)c1`, in assay [1], the “Rel. TPA Inflammatory Suppression” value is reported as “** (those >50% are (* *))”. Besides, at human recombinant FAAH, the IC50 turned out to be 135 µM.

Consider `CCCCNC(=O)OCc1ccc(OC(C)=O)c(OC)c1`, for which the “Rel. TPA Inflammatory Suppression” value in assay [1] was “*** (those >60% are marked (* * *))”. Moreover, the IC50 on human recombinant FAAH stood at 338 µM.

Turning to `CCCCCCCCCCCCNC(=O)OCc1ccc(OC(C)=O)c(OC)c1`, the “Rel. TPA Inflammatory Suppression” value in assay [1] is on record as “**** (>70% were scored (* * * *))”. Also, the half-inhibitory concentration (IC50) on human recombinant FAAH is 8 µM. Besides, the pIC50 at human recombinant FAAH (read-out: FAAH IC50) was 5.10.

With `COCCNC(=O)OCc1ccc(OC(C)=O)c(OC)c1`, the “Rel. TPA Inflammatory Suppression” value in assay [1] is listed as “* (those from 5% to 50% suppression are coded (*))”.

With `COc1cc(COC(=O)NCCc2ccccc2)ccc1OC(C)=O`, the “Rel. TPA Inflammatory Suppression” value in assay [1] is recorded as “***** (compounds which actively suppressed the edema by >80% were scored (* * * * *))”. In assay [2], the “suppression of CEES-induced ear edema” value came to 56%. Moreover, the concentration for half-maximal inhibition (IC50) on human recombinant FAAH is 8 µM.

(S)-Naproxen: the “Rel. TPA Inflammatory Suppression (percent)” value in assay [1] is given as 42%.

With `COc1cc(COC(=O)NCC2CCCCC2)ccc1OC(C)=O`, the “Rel. TPA Inflammatory Suppression” value in assay [1] is reported as “** (those >50% are (* *))”. In addition, the 50% inhibitory concentration (IC50) on human recombinant FAAH was 85 µM.

With `COc1cc(COC(=O)NCCN2CCOCC2)ccc1OC(C)=O`, the “Rel. TPA Inflammatory Suppression” value in assay [1] is on record as “* (those from 5% to 50% suppression are coded (*))”. The concentration for half-maximal inhibition (IC50) at human recombinant FAAH came to 410 µM.

Take `COc1cc(COC(=O)NCCC(C)(C)C)ccc1OC(C)=O`: the “Rel. TPA Inflammatory Suppression” value in assay [1] is listed as “*** (those >60% are marked (* * *))”. Further, the half-inhibitory concentration (IC50) at human recombinant FAAH was 25 µM.

Regarding `CCCCCCCCCCNC(=O)OCc1ccc(OC(C)=O)c(OC)c1`, the “Rel. TPA Inflammatory Suppression” value in assay [1] is recorded as “* (those from 5% to 50% suppression are coded (*))”. Also, the IC50 on human recombinant FAAH was determined as 62 µM.

In the case of `CCCCCCCCNC(=O)OCc1ccc(OC(C)=O)c(OC)c1`, the “Rel. TPA Inflammatory Suppression” value in assay [1] is “* (those from 5% to 50% suppression are coded (*))”. Moreover, at human recombinant FAAH, the half-inhibitory concentration (IC50) was found to be 88 µM.

For `COc1cc(COC(=O)NC2CCCCC2)ccc1OC(C)=O`, the IC50 on human recombinant FAAH was determined as 104 µM.

Turning to `COc1cc(COC(=O)NCCOc2ccccc2)ccc1OC(C)=O`, the “Rel. TPA Inflammatory Suppression” value in assay [1] is on record as “***** (compounds which actively suppressed the edema by >80% were scored (* * * * *))”. The “suppression of CEES-induced ear edema” value in assay [2] came out at 51%. Further, the half-maximal inhibitory concentration (IC50) at human recombinant FAAH was found to be 21 µM.

Turning to `O=C(O)Cc1ccccc1Nc1c(Cl)cccc1Cl`, the “Rel. TPA Inflammatory Suppression (percent)” value in assay [1] amounted to 35%.

Take `CCNC(=O)OCc1ccc(OC(C)=O)c(OC)c1`: the “Rel. TPA Inflammatory Suppression” value in assay [1] is “* (those from 5% to 50% suppression are coded (*))”. Also, the IC50 on human recombinant FAAH was greater than 900 µM.

Regarding `CCCCC(CC)CNC(=O)OCc1ccc(OC(C)=O)c(OC)c1` (centres unmarked), the “Rel. TPA Inflammatory Suppression” value in assay [1] is reported as “**** (>70% were scored (* * * *))”. Besides, the IC50 on human recombinant FAAH is 31 µM.

In the case of `COc1cc(COC(=O)NCc2ccccc2)ccc1OC(C)=O`, the “Rel. TPA Inflammatory Suppression” value in assay [1] was “** (those >50% are (* *))”. The IC50 on human recombinant FAAH is 28 µM.

For `CCCCCCCNC(=O)OCc1ccc(OC(C)=O)c(OC)c1`, the “Rel. TPA Inflammatory Suppression” value in assay [1] is “** (those >50% are (* *))”. Besides, at human recombinant FAAH, the IC50 was determined as 67 µM.

Regarding `CCOC(=O)CNC(=O)OCc1ccc(OC(C)=O)c(OC)c1`, in assay [1], the “Rel. TPA Inflammatory Suppression” value is “*** (those >60% are marked (* * *))”. Besides, the half-inhibitory concentration (IC50) at human recombinant FAAH is greater than 900 µM.

With `CCCCCCNC(=O)OCc1ccc(OC(C)=O)c(OC)c1`, in assay [1], the “Rel. TPA Inflammatory Suppression” value is on record as “** (those >50% are (* *))”. On human recombinant FAAH, the IC50 was determined as 333 µM.
